# The entries are a selection whose mix differs from that of the whole data set. The source made the active and inactive calls. No stated cut-off is given here; in the data, active means inhibition above about 9.5%; inactive means the rest.
# Protein sequences, listed by entry. Tags and fused reporters are not part of them.
# UniProt P53041, whole entry: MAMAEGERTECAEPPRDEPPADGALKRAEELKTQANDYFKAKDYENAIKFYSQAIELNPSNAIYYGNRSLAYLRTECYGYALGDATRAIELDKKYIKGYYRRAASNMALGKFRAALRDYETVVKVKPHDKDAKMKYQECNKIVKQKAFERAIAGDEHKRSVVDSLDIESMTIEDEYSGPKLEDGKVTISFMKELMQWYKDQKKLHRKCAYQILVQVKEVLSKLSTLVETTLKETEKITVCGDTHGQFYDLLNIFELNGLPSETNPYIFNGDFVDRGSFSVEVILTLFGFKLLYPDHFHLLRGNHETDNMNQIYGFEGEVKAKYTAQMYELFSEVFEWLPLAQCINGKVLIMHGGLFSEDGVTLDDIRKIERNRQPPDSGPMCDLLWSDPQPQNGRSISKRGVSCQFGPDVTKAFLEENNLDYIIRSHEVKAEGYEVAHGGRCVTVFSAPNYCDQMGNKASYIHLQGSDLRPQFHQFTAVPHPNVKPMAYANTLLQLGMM
# Target: Serine/threonine-protein phosphatase 5 (Homo sapiens) (UniProt P53041)
# Experiment: PP5 phosphatase inhibitors, confirmation, biochemical, fluorescence, human (AID 2331)
# Settings: Purified PP5, fluorogenic phosphatase substrate, at 6.7 µM, hits give high values
compound,measurement,value
Cc1cc(C)cc(OP(C)(N)=O)c1 (stereo unspecified),inhibition,inactive: -2.07%
